As usually defined, the IC50 is the midpoint of a concentration-inhibition curve.

We go through one molecule from patent US9181197B2 (priority 2008, dated 2015).

The subject of data set [1] is H295R adrenocortical cells. Briefly: inhibition of forskolin-stimulated cortisol synthesis by H295R cells. It is filed as cell-based, human. Conditions: read-out: IC50 for cortisol synthesis; 48 hrs, 20 μM forskolin, ELISA. (In an ELISA, binding on a coated surface is turned into a signal by an enzyme label.)
In the next data set the test system is animals. Conditions: LD50/ED50; cited from earlier work.

As to `CCOC(=O)c1cncn1[C@H](C)c1ccccc1`, in data set [1], the concentration for half-maximal inhibition (IC50) worked out at 1.3 nM. Moreover, the therapeutic index in the data set on animals is on record as 26.4.
